Measured values reported in paper PMC6940354, “Comparative Assessment of the New PDE7 Inhibitor – GRMS-55 and Lisofylline in Animal Models of Immune-Related Disorders: A PK/PD Modeling Approach” (Pharmaceutical Research, 2020).
pIC50: −log10 of the molar value. Where “and” joins values, the source holds several entries; their conditions need not be identical. Equal entries are not always repeated.

Amino acid sequences for entries named in this document (tags omitted). A change or cut given only in a name is not applied to a line headed by its entry.
UniProt Q9Y233: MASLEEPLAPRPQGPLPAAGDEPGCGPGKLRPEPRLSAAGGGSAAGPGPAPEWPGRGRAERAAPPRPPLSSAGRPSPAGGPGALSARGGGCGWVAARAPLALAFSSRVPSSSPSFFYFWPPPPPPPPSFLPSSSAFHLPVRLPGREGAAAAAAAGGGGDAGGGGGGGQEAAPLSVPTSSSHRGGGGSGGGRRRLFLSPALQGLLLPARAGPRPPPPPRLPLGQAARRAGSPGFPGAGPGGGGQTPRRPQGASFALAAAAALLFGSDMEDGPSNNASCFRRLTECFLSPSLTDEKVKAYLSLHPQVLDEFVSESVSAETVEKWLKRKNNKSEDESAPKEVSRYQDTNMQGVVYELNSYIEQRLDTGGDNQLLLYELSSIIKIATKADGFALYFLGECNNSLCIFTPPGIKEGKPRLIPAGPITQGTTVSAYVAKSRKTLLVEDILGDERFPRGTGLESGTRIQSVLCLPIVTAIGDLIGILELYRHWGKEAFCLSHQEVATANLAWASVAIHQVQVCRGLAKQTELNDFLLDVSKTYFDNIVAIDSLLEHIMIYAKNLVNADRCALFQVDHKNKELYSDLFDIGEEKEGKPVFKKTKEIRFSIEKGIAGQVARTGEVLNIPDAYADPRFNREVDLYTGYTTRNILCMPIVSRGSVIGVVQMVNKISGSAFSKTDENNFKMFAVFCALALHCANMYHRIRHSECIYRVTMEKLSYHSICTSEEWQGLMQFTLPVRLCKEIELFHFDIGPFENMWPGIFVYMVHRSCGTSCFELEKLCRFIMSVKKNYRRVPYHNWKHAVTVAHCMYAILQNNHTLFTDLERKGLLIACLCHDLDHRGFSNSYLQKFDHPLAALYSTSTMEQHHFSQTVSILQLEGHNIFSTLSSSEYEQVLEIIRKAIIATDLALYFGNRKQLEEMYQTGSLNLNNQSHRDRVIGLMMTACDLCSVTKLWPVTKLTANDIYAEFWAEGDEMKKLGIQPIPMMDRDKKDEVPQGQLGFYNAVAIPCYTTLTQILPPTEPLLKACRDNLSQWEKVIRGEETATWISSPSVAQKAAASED

Molecular target: hrPDE10A (Homo sapiens, UniProt Q9Y233)
Test: PDE-Glo Phosphodiesterase Assay, hrPDE10A
Conditions: IC50 PDE10A, Estimate (CV%), cAMP substrate

`COc1ccc(Cc2nccc3cc(OC)c(OC)cc23)cc1OC` [Papaverine, papaverine] was tested, and the pIC50 was > 6.00 and 7.18.
